Shown are actives, neighbours in structure and some others; about 2.8% of the full set was active somewhere.
esBAF inh: blocks esBAF chromatin remodeling in mouse ES cells | Bmi1-luciferase knock-in reporter, 24 h; 100% = twice the neutral-well signal | reporter increase, % at 12.5 µM | 350,000 compounds, 2% hits | AID 602393; in the data active = activation above about 40%; inconclusive = no clear call, values can overlap the other calls;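 note: 0% = median of the plate's neutral control wells and 100% = double that signal; a rise in the Bmi1 reporter signal indicates esBAF inhibition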
PGC1a acetyl inh: PGC1a acetylation modulation, inhibitor mode | 350,000 compounds, 0.17% hits | U2OS PGC1a acetylation, AlphaScreen anti-acetyl-lysine; with virally co-expressed GCN5 acetyltransferase | inhibition, % at 15.6 µM;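 active = every replicate shows inhibition of at least 40%; inconclusive = mean inhibition at least 40% but some replicate below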;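 note: 0% = neutral control wells and 100% = positive control wells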
Yeast UUG start: yeast start codon fidelity modulation; activity score, % at 18.7 µM; actives 0.13% (n = 350,000); S. cerevisiae UUG-firefly luciferase reporter, luminescence/redox ratio; AID 602363;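 active means replicate mean at a twofold rise or more, about +100% in these data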;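 further: firefly luciferase made from a UUG start codon reports start codon fidelity; reporter light over untreated wells divided by growth signal over untreated wells; some hits fall short of that in this replicate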
PglD inh: PglD (C. jejuni) enzyme inhibition. inhibition, % at 12.5 µM. AID 602405. 360,000 compounds, 0.098% hits. purified PglD enzyme, DTNB colorimetric CoA detection; in the data active = inhibition above about 16%, passing the limit was not always enough; inconclusive = no clear call, values can overlap the other calls
E-selectin induc: E-selectin induction on HUVECs; HUVEC E-selectin immunofluorescence imaging; normalized: neutral wells 0, TNF-alpha wells 100; activation, % at 7.58 µM; 260,000 compounds, 0.37% hits; AID 686992;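 active = mean E-selectin-positive cell signal at least 10% of the positive control, reached in at least 60% of replicates, without over 20% cell loss; inconclusive = no rule given, readout overlaps actives, possibly toxicity-flagged; inactive = the rest, including those meeting only one limit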
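material = human umbilical vein endothelial cells (HUVEC), E-selectin induction | quantity = 3,000 cells/well | medium = EGM-2 growth medium on 0.1% gelatin-coated wells | technique = immunofluorescence imaging | read-out basis = % PE-positive cells | control set = TNF-alpha positive control, DMSO neutral control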
Statin myotox sup: suppressors of simvastatin-induced myotoxicity in C2C12 myotubes; 330,000 compounds, 0.78% hits; AID 602340; ATP luminescence, 48 h; scaled: DMSO 0, geranylgeraniol control 100; rescue of ATP level, % at 7.49 µM;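 active = mean ATP rescue above about 67%, or every replicate alone reaching that limit, limit read from the data, passing the limit was not always enough; inconclusive = no clear call, values can overlap the other calls; inactive = mean under the limit and some replicate under it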;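 note: myotubes were challenged with 10 µM simvastatin during compound exposure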
An asterisk follows results filed as active; u = inconclusive; x = not tested or not shown.

SMILES	esBAF inh	PGC1a acetyl inh	Yeast UUG start	PglD inh	E-selectin induc	Statin myotox sup
COc1ccccc1C(=O)C1CCCN(C(=O)c2ccccc2C(C)=O)C1 (stereo not drawn)	49.6*	-6.0	-6.6	1.2	x	8.3
CC(=O)N(c1nnc(-c2cccc(C)c2)s1)C1CCCC1	52.1*	-2.0	1.3	-0.1	0.2	11.8
COCCN(C(=O)C1CC1)c1nnc(-c2ccc(C)cc2)s1	16.9	-2.6	-8.2	0.0	x	-13.1
C[C@@H]1CCCCO[C@H](CN(C)C)[C@H](C)CN([C@H](C)CO)C(=O)c2cc(NC(=O)CCCN(C)C)ccc2O1	-7.7	-4.1	x	x	-0.2	1.2
O=C1C=CC(=O)c2c(O)c(N3CCN(CCO)CC3)c(Cl)c(O)c21	-79.6	50.5*	x	x	-0.1	-182.5
O=S(=O)(c1ccc(Br)cc1Cl)N1CCN(CCO)CC1	-5.1	0.5	-28.6	2.5	-5.4	11.7
Cc1cccc2cc3c(nc12)SC(=NCC1CCCO1)N(Cc1ccco1)C3 (stereo not drawn)	x	3.9	-24.5	1.6	x	x
COCCN=C1Sc2nc3c(C)cccc3cc2CN1Cc1ccco1	-2.9	4.1	-23.7	-4.4	x	113.8*
COc1ccc(CN(C)C[C@H]2Oc3ccc(NC(=O)Cc4cn(C)c5ccccc45)cc3C(=O)N([C@@H](C)CO)C[C@@H]2C)cc1	0.5	4.9	-10.7	0.3	-0.4	-11.6
CC(=O)N(C)c1ccc(NCc2cc(=O)oc3cc(C)c(O)cc23)cc1	80.1*	-9.6	-12.3	-2.2	x	1.3
Cc1ccc(Cn2ccc(-c3cnc(-c4ccccc4)s3)n2)cc1	79.0*	2.3	-17.9	-3.1	x	11.9
COc1ccc2cc3cc(C(=O)N(C)C4CCCCC4)oc3nc2c1	50.6*	5.7	-13.5	4.7	x	-27.8
COc1ccc2cc3cc(C(=O)N4CCCCCC4)oc3nc2c1	-36.6	-0.5	-33.2	2.2	x	-28.2
O=C(NCc1cccs1)c1cc2c(s1)-c1ccccc1OC2	67.8*	-7.3	-13.2	-1.6	0.2	-0.6
O=C(O)c1cc2c(s1)-c1ccccc1OC2	18.5	4.4	-11.7	-7.2	x	-10.3

Record cards (already shown). Screens in order: esBAF inh	PGC1a acetyl inh	Yeast UUG start	PglD inh	E-selectin induc	Statin myotox sup
`COCCN(C(=O)C1CC1)c1nnc(-c2ccc(C)cc2)s1` is listed with 16.9	-2.6	-8.2	0.0	x	-13.1
`O=S(=O)(c1ccc(Br)cc1Cl)N1CCN(CCO)CC1` is listed with -5.1	0.5	-28.6	2.5	-5.4	11.7
`O=C(O)c1cc2c(s1)-c1ccccc1OC2` is listed with 18.5	4.4	-11.7	-7.2	x	-10.3
`COc1ccc2cc3cc(C(=O)N4CCCCCC4)oc3nc2c1` is listed with -36.6	-0.5	-33.2	2.2	x	-28.2

(further entries)
SMILES	esBAF inh	PGC1a acetyl inh	Yeast UUG start	PglD inh	E-selectin induc	Statin myotox sup
O=C(NCCCN1CCOCC1)c1cc2c(s1)-c1ccccc1OC2	2.8	-14.6	-8.8	1.9	x	0.8
O=C(NC1CC1)c1cc2c(s1)-c1ccccc1OC2	45.1*	3.2	-6.9	0.0	u	0.7
CCOC(=O)c1cc(C(=O)Nc2ccc(C)c(F)c2)nn1C	42.5*	5.0	-11.1	-1.7	x	-70.0
O=C(C[C@@H]1CC[C@@H]2[C@H](COC[C@H](O)CN2Cc2cc(F)cc(F)c2)O1)Nc1nccs1	8.0	-6.1	x	-2.4	-0.1	13.6
C[C@H]1CN([C@@H](C)CO)S(=O)(=O)c2ccc(C3=CCCCC3)cc2O[C@H]1CN(C)CC1CC1	x	-21.8	x	x	-0.1	-42.6
COc1cccc(NC(=O)N2CCc3ccccc3C2)c1	50.1*	4.0	-3.1	-1.7	3.4	-13.3
O=C(Nc1ccc([N+](=O)[O-])cc1)N1CCc2ccccc2C1	50.8*	x	-16.0	0.8	x	-16.6
COc1cccc(NC(=O)N2CCc3nc(Nc4ccc(C(C)C)cc4)ncc3C2)c1	70.3*	-6.8	-21.1	6.9	0.2	5.7
O=C(Nc1ccccc1F)N1CCc2ccccc2C1	65.0*	x	-4.3	-0.3	0.0	0.8
O=C(Nc1cccc(Cl)c1)N1CCc2ccccc2C1	50.1*	-2.5	-20.6	3.8	x	9.6
O=C(Nc1cccc(Cl)c1)c1nc[nH]c1C(=O)N1CCc2ccccc2C1	-1.8	x	-10.2	5.4	x	0.0
C[C@@H]1CN([C@H](C)CO)C(=O)c2cccc(NS(=O)(=O)c3ccc(Cl)cc3)c2O[C@H]1CN(C)C(=O)Nc1ccc(F)cc1	-1.7	10.9	x	x	0.2	-10.9
CC1(C)CC(=O)C2=C(C1)c1c(ccc3ccccc13)NC2c1ccc(Br)o1 (stereo not drawn)	21.8	-7.5	-20.8	-3.6	x	106.8*
CC1(C)CC(=O)C2=C(C1)c1c(ccc3ccccc13)NC2c1ccc(OCC(=O)O)cc1 (stereo not drawn)	0.8	13.8	-17.6	-2.9	x	3.1
C[C@@H]1CCCCO[C@@H](CN(C)C(=O)C2CCCCC2)[C@H](C)CN([C@@H](C)CO)C(=O)c2cc(NS(=O)(=O)c3cn(C)cn3)ccc2O1	6.3	-1.8	-2.6	0.8	0.2	x
O=S1(=O)Nc2c(ccc3cccnc23)-c2ccccc21	-21.4	-50.7	-24.7	-3.0	x	109.1*

Source: PubChem (Broad Institute)
